Patent US11142554B2 (MASSACHUSETTS INSTITUTE OF TECHNOLOGY, priority 2015, dated 2021)

Protein sequences, listed by entry. Tags and fused reporters are not part of them.
UniProt Q07820, whole entry, looked up: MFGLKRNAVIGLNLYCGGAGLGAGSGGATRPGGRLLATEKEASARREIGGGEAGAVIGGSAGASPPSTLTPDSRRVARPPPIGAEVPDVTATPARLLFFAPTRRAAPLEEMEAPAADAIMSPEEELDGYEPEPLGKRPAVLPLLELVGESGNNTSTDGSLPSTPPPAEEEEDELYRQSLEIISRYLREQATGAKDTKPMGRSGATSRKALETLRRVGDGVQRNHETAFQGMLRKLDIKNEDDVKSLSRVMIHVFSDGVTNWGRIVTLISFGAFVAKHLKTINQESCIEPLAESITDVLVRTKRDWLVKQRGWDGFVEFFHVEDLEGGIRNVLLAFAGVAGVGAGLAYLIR

Target: Mcl-1 (Homo sapiens, UniProt Q07820)
Assay: IC50%(nM)

Sequence: RPEIWMTQGLRRLGDEINAYYAR [MS1]
- IC50: ~2200 nM
